In ChEMBL document CHEMBL1158439, “Non-isotopic dual parameter competition assay suitable for high-throughput screening of histone deacetylases” (Bioorg Med Chem Lett, 2009):

Columns and labels:
Parameters in all cases: species or system Alcaligenaceae bacterium FB188
[1] = target: T1, Histone deacetylase-like amidohydrolase (Alcaligenes sp. (strain DSM 11172) (Bordetella sp. (strain FB188)), UniProt Q70I53); assay: Displacement of Atto700-HA from Bordetella / Alcaligenes strain FB188 HDAH by fluorescence anisotropy
T1 sequence (Q70I53 whole entry): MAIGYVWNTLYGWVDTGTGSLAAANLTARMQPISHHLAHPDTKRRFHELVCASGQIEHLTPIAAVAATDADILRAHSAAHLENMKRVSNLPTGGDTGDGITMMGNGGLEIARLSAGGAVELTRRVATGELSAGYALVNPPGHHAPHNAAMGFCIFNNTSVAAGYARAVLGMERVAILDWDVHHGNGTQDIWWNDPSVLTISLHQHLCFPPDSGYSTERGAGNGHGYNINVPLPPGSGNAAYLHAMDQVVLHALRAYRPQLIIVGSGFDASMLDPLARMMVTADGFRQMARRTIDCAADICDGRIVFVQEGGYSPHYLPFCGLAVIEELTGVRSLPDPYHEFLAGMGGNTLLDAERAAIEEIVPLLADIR

[2] = target: T1, Histone deacetylase-like amidohydrolase (Alcaligenes sp. (strain DSM 11172) (Bordetella sp. (strain FB188)), UniProt Q70I53); assay: Inhibition of Bordetella / Alcaligenes strain FB188 HDAH by fluorimetric assay
[3] = target: T1, Histone deacetylase-like amidohydrolase (Alcaligenes sp. (strain DSM 11172) (Bordetella sp. (strain FB188)), UniProt Q70I53); assay: Binding affinity to Bordetella / Alcaligenes strain FB188 HDAC by FRET assay

- Ki [1]: 1300 nM
- IC50 [2]: 1000 nM
- Ki [3]: 1000 nM
SMILES: O=C(CCCCCCC(=O)Nc1ccccc1)NO [VORINOSTAT]
